Experimental data: patent publication US9464084B2, “P2X7 modulators” (Janssen Pharmaceutica NV, priority 2013, dated 2016)

The chains behind the UniProt entries cited, without tags or fusion partners. Where a name states a change or a piece, a line headed by the entry shows the natural chain unless it says otherwise.
UniProt Q99572: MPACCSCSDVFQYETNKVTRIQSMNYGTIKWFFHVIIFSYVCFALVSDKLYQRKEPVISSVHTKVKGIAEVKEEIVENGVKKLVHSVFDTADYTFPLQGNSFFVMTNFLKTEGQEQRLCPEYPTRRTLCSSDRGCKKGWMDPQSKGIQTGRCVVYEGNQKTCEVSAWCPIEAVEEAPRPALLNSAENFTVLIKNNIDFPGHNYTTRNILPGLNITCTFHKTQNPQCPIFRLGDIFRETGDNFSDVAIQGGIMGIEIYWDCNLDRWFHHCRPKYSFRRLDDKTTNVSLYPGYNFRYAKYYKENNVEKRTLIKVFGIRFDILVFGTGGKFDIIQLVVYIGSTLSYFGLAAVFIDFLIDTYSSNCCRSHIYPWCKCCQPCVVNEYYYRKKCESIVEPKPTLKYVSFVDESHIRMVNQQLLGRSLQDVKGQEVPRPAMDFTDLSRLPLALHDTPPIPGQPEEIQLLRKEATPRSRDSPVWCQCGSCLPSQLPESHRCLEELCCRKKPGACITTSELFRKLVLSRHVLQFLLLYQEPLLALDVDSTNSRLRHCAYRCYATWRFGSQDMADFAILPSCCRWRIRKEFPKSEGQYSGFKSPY
UniProt Q64663: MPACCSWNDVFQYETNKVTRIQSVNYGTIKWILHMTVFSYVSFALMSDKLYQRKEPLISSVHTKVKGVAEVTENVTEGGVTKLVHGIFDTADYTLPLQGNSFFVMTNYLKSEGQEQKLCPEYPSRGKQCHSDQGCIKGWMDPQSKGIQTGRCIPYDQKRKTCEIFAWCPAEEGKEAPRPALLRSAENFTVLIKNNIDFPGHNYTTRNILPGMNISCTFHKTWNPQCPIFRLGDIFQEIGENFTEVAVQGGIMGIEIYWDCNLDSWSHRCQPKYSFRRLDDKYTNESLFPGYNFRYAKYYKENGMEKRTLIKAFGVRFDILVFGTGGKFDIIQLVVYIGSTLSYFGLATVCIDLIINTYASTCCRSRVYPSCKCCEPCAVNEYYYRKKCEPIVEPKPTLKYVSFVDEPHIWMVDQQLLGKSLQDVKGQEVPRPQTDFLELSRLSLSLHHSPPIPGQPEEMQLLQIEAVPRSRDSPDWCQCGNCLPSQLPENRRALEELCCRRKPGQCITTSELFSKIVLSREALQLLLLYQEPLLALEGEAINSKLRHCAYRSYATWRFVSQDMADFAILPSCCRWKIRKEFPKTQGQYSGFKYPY

Tests used:
P2X7 [1] = target: T1, P2X7 (Homo sapiens (Human), UniProt Q99572); assay: P2X7 antagonism in human whole blood (LPS + Bz-ATP induced IL-1β release, ELISA); assay type: cell-based; conditions: LPS 30 ng/ml, Bz-ATP 1 mM
P2X7 [2] = target: T1, P2X7; assay: Radioligand binding, tritiated A-804598, human P2X7-1321N1 cell membranes; conditions: 1 hour at 4° C.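 Note: ki obtained from the binding IC50 after correction for tracer concentration and tracer affinity.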
P2X7 [3] = target: T1, P2X7; assay: Ca2+ flux (FLIPR) in 1321N1 cells expressing recombinant human P2X7 channel; assay type: cell-based; conditions: 250 μM BzATP;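 note: Calcium-4 dye-loaded cells exposed to compound for 30 min before agonist addition, fluorescence change read 180 s after agonist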
rat P2X7 = rat P2X7 (Rattus norvegicus (Rat), UniProt Q64663); assay: Ca2+ flux (FLIPR) in 1321N1 cells expressing recombinant rat P2X7 channel; assay type: cell-based; conditions: 250 μM BzATP;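 note: Calcium-4 dye fluorescence change read 180 s after agonist addition, following 30 min cell preincubation with test compound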

SMILES	IC50 (P2X7 [1]) [nM]	Ki (P2X7 [2]) [nM]	IC50 (P2X7 [3]) [nM]	IC50 (rat P2X7) [nM]
CC1c2nnn(-c3cnccn3)c2C=CN1C(=O)c1cccc(C(F)(F)F)c1Cl (centres unmarked) [Example 72, 5-{[2-Chloro-3-(trifluoromethyl)phenyl]carbonyl}-4-methyl-1-pyrazin-2-yl-4,5-dihydro-1H-[1,2,3]triazolo[4,5-c]pyridine]	126			
CC1c2nnn(-c3ncccn3)c2CCN1C(=O)c1cccc(C(F)(F)F)c1Cl (centres unmarked) [Example 80, 5-{[2-Chloro-3-(trifluoromethyl)phenyl]carbonyl}-4-methyl-1-pyrimidin-2-yl-4,5,6,7-tetrahydro-1H-[1,2,3]triazolo[4,5-c]pyridine]	16			
C[C@@H]1c2ncn(-c3ccc(F)cc3)c2CCN1C(=O)c1cccc(C(F)(F)F)c1Cl (single isomer, unassigned) [Example 46, (4R*)-5-{[2-Chloro-3-(trifluoromethyl)phenyl]carbonyl}-1-(4-fluorophenyl)-4-methyl-4,5,6,7-tetrahydro-1H-imidazo[4,5-c]pyridine]	3980			
Cc1ccnc(-n2nnc3c2CCN(C(=O)c2cccc(C(F)(F)F)c2Cl)C3C)c1 (centres unmarked) [Example 299, (2-chloro-3-(trifluoromethyl)phenyl)(4-methyl-1-(4-methylpyridin-2-yl)-6,7-dihydro-1H-[1,2,3]triazolo[4,5-c]pyridin-5(4H)-yl)methanone]		20	8.1	
O=C(c1cccc(C(F)(F)F)c1Cl)N1CCc2c(nnn2-c2cnccn2)C1 [Example 91, 5-{[2-Chloro-3-(trifluoromethyl)phenyl]carbonyl}-1-pyrazin-2-yl-4,5,6,7-tetrahydro-1H-[1,2,3]triazolo[4,5-c]pyridine]	316			
O=C(c1cccc(C(F)(F)F)c1Cl)N1CCc2c(ncn2-c2ccccn2)C1CF (centres unmarked) [Example 32, (2-Chloro-3-(trifluoromethyl)phenyl)(4-(fluoromethyl)-1-(pyridin-2-yl)-6,7-dihydro-1H-imidazo[4,5-c]pyridin-5(4H)-yl)methanone]	251			
C[C@@H]1Cc2c(nnn2-c2ccc(F)cc2)[C@@H](C)N1C(=O)c1cccc(C(F)(F)F)c1Cl [Example 284, (2-chloro-3-(trifluoromethyl)phenyl)((4R,6R)-1-(4-fluorophenyl)-4,6-dimethyl-6,7-dihydro-1H-[1,2,3]triazolo[4,5-c]pyridin-5(4H)-yl)methanone]		316	240	673
C[C@@H]1c2nnn(-c3cnccn3)c2CCN1C(=O)c1ccc(F)c(Cl)c1Cl (single isomer, unassigned) [Example 143, (R*)-(2,3-Dichloro-4-fluorophenyl)(4-methyl-1-(pyrazin-2-yl)-6,7-dihydro-1H-[1,2,3]triazolo[4,5-c]pyridin-5(4H)-yl)methanone]			> 10000	> 10000
CC1Cc2c(nnn2-c2ccc(F)cc2)C(C)N1C(=O)c1cccc(C(F)(F)F)c1Cl (centres unmarked) [Example 243, (2-Chloro-3-(trifluoromethyl)phenyl)(1-(4-fluorophenyl)-4,6-dimethyl-6,7-dihydro-1H-[1,2,3]triazolo[4,5-c]pyridin-5(4H)-yl)methanone]		63.1	16	15
Cc1ccnc(-n2nnc3c2CCN(C(=O)c2cccc(Cl)c2Cl)C3C)c1 (centres unmarked) [Example 237, (2,3-dichlorophenyl)(4-methyl-1-(4-methylpyridin-2-yl)-6,7-dihydro-1H-[1,2,3]triazolo[4,5-c]pyridin-5(4H)-yl)methanone]		36.3	3.2	128
C[C@H]1Cc2c(nnn2-c2ncc(F)cn2)CN1C(=O)c1ccc(Cl)c(F)c1Cl (single isomer, unassigned) [Example 218, (6S*)-5-[(2,4-Dichloro-3-fluorophenyl)carbonyl]-1-(5-fluoropyrimidin-2-yl)-6-methyl-4,5,6,7-tetrahydro-1H-[1,2,3]triazolo[4,5-c]pyridine]			12.4	
C[C@@H]1Cc2c(nnn2-c2ccn[nH]2)[C@H](C)N1C(=O)c1cccc(C(F)(F)F)c1Cl [Example 297, (2-chloro-3-(trifluoromethyl)phenyl)((4S,6R)-4,6-dimethyl-1-(1H-pyrazol-5-yl)-6,7-dihydro-1H-[1,2,3]triazolo[4,5-c]pyridin-5(4H)-yl)methanone]		10	5	5.6
C[C@@H]1c2nnn(-c3ccn[nH]3)c2C[C@H](C)N1C(=O)c1cccc(C(F)(F)F)c1Cl [Example 310, (2-chloro-3-(trifluoromethyl)phenyl)((4R,6S)-4,6-dimethyl-1-(1H-pyrazol-5-yl)-6,7-dihydro-1H-[1,2,3]triazolo[4,5-c]pyridin-5(4H)-yl)methanone]		5	9.2	2.6
Cn1nc(-c2cccnc2)c2c1CN(C(=O)c1cccc(C(F)(F)F)c1Cl)CC2 [Example 108, 6-{[2-Chloro-3-(trifluoromethyl)phenyl]carbonyl}-1-methyl-3-pyridin-3-yl-4,5,6,7-tetrahydro-1H-pyrazolo[3,4-c]pyridine]			12.6	
C[C@H]1Cc2c(nnn2-c2ccn[nH]2)[C@H](C)N1C(=O)c1cccc(C(F)(F)F)c1Cl [Example 319, (2-chloro-3-(trifluoromethyl)phenyl)((4S,6S)-4,6-dimethyl-1-(1H-pyrazol-5-yl)-6,7-dihydro-1H-[1,2,3]triazolo[4,5-c]pyridin-5(4H)-yl)methanone]			10000	
Cc1cc(C)nc(-n2nnc3c2CCN(C(=O)c2cccc(C(F)(F)F)c2Cl)C3C)n1 (centres unmarked) [Example 253, (2-Chloro-3-(trifluoromethyl)phenyl)(1-(4,6-dimethylpyrimidin-2-yl)-4-methyl-6,7-dihydro-1H-[1,2,3]triazolo[4,5-c]pyridin-5(4H)-yl)methanone]		195	185	
Cc1cccc(-n2nnc3c2CCN(C(=O)c2cccc(Cl)c2Cl)C3C)n1 (centres unmarked) [Example 233, (2,3-dichlorophenyl)(4-methyl-1-(6-methylpyridin-2-yl)-6,7-dihydro-1H-[1,2,3]triazolo[4,5-c]pyridin-5(4H)-yl)methanone]		100	6	
CCOc1cccnc1-n1nnc2c1CCN(C(=O)c1cccc(C(F)(F)F)c1Cl)[C@H]2C (single isomer, unassigned) [Example 317, (S*)-(2-chloro-3-(trifluoromethyl)phenyl)(1-(3-ethoxypyridin-2-yl)-4-methyl-6,7-dihydro-1H-[1,2,3]triazolo[4,5-c]pyridin-5(4H)-yl)methanone]			> 10000	
CC1Cc2c(nnn2-c2ncc(F)cn2)CN1C(=O)c1ccc(Cl)c(F)c1Cl (centres unmarked) [Example 216, 5-[(2,4-Dichloro-3-fluorophenyl)carbonyl]-1-(5-fluoropyrimidin-2-yl)-6-methyl-4,5,6,7-tetrahydro-1H-[1,2,3]triazolo[4,5-c]pyridine]			12.6	83.4
C[C@@H]1c2nnn(-c3ccc(F)cc3)c2C[C@H](C)N1C(=O)c1cccc(C(F)(F)F)c1Cl [Example 287, (2-chloro-3-(trifluoromethyl)phenyl)((4R,6S)-1-(4-fluorophenyl)-4,6-dimethyl-6,7-dihydro-1H-[1,2,3]triazolo[4,5-c]pyridin-5(4H)-yl)methanone]		14.1	7	2.8
CCOC(=O)C1c2ncn(-c3ccccc3)c2CCN1C(=O)c1cccc(Cl)c1Cl (centres unmarked) [Example 27, Ethyl 5-(2,3-dichlorobenzoyl)-1-phenyl-4,5,6,7-tetrahydro-1H-imidazo[4,5-c]pyridine-4-carboxylate]			180	
